Literature values in patent publication US5613958A, “Transdermal delivery systems for the modulated administration of drugs” (PP Holdings Inc., priority 1995, dated 1997).

Conditions: dose regimens of ISDN and IS-5-MN; literature studies

## O=[N+]([O-])O[C@@H]1CO[C@H]2[C@@H]1OC[C@@H]2O [IS-5-MN, isosorbide 5-mononitrate]
  plasma concentration of IS-5-MN before next dose with continuous antianginal efficacy: below 100 ng/ml
